Results as given in ChEMBL document CHEMBL1139712, “Interaction of N1-unsubstituted and N1-benzenesulfonyltryptamines at h5-HT6 receptors” (Bioorg Med Chem Lett, 2006).

Sequences of proteins named here, by UniProt entry; tags and fusion partners are left off.
UniProt P50406, whole entry: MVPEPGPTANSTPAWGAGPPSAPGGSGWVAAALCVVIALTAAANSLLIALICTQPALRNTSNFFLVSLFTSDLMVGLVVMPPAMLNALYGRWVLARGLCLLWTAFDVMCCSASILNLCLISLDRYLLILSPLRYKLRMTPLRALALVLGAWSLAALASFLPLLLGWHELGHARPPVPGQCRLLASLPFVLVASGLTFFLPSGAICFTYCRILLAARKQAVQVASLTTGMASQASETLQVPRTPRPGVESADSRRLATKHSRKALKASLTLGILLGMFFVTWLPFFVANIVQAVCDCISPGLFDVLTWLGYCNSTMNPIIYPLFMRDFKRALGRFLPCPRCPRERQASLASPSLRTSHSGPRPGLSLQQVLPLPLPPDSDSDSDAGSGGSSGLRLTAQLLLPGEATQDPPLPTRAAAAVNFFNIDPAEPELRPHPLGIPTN

Molecular target: 5-hydroxytryptamine receptor 6 (Homo sapiens, UniProt P50406)
Assay: Displacement of [3H]LSD from human 5HT6 receptor expressed in HEK293 cells
Format: cell-based

COc1ccc2[nH]cc(CCN(C)C)c2c1 [MEBUFOTENIN]
Ki: 13 nM
